In patent publication US7358236B1 (priority 2002, dated 2008):

Experiments:
[1] = tested on: P22 rat carcinosarcoma; assay: Tumor blood flow (THF) measured with radioactive tracer 125I-iodoantipyrine; conditions: antihypertensive co-administered with CA-4DP 30 mg/kg i.p., approximately 1 hour after treatment
[2] = Control of blood pressure (MABP via arterial cannula) in VTA-treated anaesthetized healthy rats; conditions: SNP infused 20 ug/kg/min at first sign of MABP increase after CA-4DP 30 mg/kg
[3] = MABP and heart rate in tumor-bearing, VTA-treated rats 1 hour after dosing; conditions: antihypertensive co-administered with CA-4DP 30 mg/kg i.p.

Disodium Pentacyaanonitrosylferrate (2-)dihydrate
Tumor blood flow, % of control [1]: 12.6 % of control
Effect on CA-4DP-induced MABP increase [2]: prolonged stabilization of MABP
MABP ([3]; 1 hour after CA-4DP dosing): 82.7 mmHg
Heart Rate ([3]; 1 hour post CA-4DP dosing): 414.4 bpm

This is a selection: effects in other tests are not listed, and their absence says nothing.
